The values below come from US11141452B2, “Bifunctional compounds for relief of pain comprising an opioid receptor agonist moiety and a NK1 receptor antagonist moiety and methods for treating pain” (THE ARIZONA BOARD OF REGENTS ON BEHALF OF THE UNIVERSITY OF …, priority 2014, dated 2021).

Amino acid sequences for entries named in this document (tags omitted).
UniProt P30547, whole entry: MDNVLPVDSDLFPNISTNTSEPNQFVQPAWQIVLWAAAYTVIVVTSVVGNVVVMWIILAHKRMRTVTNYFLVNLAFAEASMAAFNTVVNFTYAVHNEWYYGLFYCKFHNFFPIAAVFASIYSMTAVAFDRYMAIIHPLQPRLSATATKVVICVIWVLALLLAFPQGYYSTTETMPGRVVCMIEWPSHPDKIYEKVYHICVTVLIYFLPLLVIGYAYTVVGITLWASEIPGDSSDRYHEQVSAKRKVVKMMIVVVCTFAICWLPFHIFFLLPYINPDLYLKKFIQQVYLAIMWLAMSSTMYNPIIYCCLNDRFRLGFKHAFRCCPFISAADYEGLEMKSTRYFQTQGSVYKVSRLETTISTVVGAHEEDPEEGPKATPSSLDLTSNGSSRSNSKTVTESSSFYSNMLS

Assay [1] deals with MOR. As to the kind of experiment: Radioligand binding assay at μ opioid receptor.
Assay [2] deals with T1, NK1R (Cavia porcellus, UniProt P30547).
T1 construct: The longitudinal muscle with myenteric plexus (LMMP) was carefully separated from the circular muscle; from tissue; host or cells: guinea pig ileum longitudinal muscle with myenteric plexus
Kind of assay: GPI/LMMP functional assay at NK1R (agonist and antagonist testing). The class given is cell-based, guinea pig. The following applies: agonist activity at the concentration in the cell.

For assay [3], the system named is MOR. As to the kind of experiment: Guinea pig isolated ileum (GPI) functional assay. It counts as cell-based.

Non-standard residues stand in square brackets, D forms with d. Residues, ends and D or L forms follow the SMILES beside them. *: point of attachment. NH(3,5-(CF3)2-benzyl) = FC(F)(F)c1cc(CN*)cc(C(F)(F)F)c1

In the case of `CC(C)C[C@H](NC(=O)[C@@H]1CCCN1C(=O)[C@H](Cc1ccc(O)cc1)NC(=O)CNC(=O)[C@H](Cc1ccccc1)NC(=O)[C@@H](C)NC(=O)[C@@H](N)Cc1ccc(O)cc1)C(=O)N[C@@H](Cc1c[nH]c2ccccc12)C(=O)NCc1cc(C(F)(F)F)cc(C(F)(F)F)c1` [AKG114] (H-Y[dA]FGYPLW-{NH(3,5-(CF3)2-benzyl)}), the “binding selectivity for MOR over DOR” value in assay [1] came out at 5 times. For the same molecule, the “Ki^μ/Ki^δ” value in assay [1] (ratio of binding affinities MOR/DOR) was 1/5. Besides, in assay [2], the “GPI/LMMP (NK1R) Agonist” value is “None at 300 nM”. In assay [3], the “GPI/MVD IC50 ratio” value is recorded as 4/1.
